Reference: ChEMBL document CHEMBL4304816, “A Novel Biphenyl-based Chemotype of Retinoid X Receptor Ligands Enables Subtype and Heterodimer Preferences” (ACS Med Chem Lett, 2019)

Columns and labels:
Format in all cases: cell-based
[1] = target: T1, Retinoic acid receptor RXR-gamma (Homo sapiens) (UniProt P48443); experiment: Agonist activity at Gal4-LBD fused RXRgamma (unknown origin) expressed in HEK293T cells assessed as fold activation after 14 to 16 hrs by dual-Glo luciferase assay relative to untreated control
T1 sequence (whole entry): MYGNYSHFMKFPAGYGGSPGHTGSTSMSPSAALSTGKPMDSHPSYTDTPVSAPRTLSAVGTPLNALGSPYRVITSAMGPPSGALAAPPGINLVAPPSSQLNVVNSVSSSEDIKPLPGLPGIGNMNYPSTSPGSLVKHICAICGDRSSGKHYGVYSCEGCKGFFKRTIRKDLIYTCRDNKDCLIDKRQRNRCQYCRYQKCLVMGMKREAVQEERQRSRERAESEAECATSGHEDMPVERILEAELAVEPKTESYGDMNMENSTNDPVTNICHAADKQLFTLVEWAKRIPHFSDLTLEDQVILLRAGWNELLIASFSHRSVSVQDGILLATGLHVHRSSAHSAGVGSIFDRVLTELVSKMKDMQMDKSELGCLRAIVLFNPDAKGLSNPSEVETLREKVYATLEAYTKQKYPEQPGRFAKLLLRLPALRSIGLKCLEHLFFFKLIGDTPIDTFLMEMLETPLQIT
Summary of the method: (§1)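 Gal4-hybrid RXRα/β/γ reporter gene assays in HEK293T cells. Fold activation is the maximal fold activation versus 0.1% DMSO.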

[2] = target: T2, Retinoic acid receptor RXR-beta (Homo sapiens) (UniProt P28702); experiment: Agonist activity at Gal4-LBD fused RXRbeta (unknown origin) expressed in HEK293T cells assessed as fold activation at 10 uM after 14 to 16 hrs by dual-Glo luciferase assay relative to untreated control
T2 sequence (whole entry): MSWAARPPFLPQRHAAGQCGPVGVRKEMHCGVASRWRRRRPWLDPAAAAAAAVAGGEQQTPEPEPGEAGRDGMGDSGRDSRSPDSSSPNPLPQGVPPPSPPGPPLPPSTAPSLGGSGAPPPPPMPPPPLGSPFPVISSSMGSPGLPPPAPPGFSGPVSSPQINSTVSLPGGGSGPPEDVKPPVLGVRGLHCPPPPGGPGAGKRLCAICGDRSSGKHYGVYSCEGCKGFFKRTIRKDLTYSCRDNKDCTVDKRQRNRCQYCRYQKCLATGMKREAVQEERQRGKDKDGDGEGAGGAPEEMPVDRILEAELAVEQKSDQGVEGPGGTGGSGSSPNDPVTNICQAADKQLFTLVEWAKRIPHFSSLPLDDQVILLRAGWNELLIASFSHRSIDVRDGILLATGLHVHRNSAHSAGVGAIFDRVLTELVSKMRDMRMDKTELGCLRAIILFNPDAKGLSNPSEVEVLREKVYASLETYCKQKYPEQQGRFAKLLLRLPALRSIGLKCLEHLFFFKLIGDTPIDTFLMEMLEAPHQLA
Summary of the method: (§2)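 Gal4-hybrid RXRα/β/γ reporter gene assays in HEK293T cells. Fold activation is the maximal fold activation versus 0.1% DMSO. EC50 and fold activation are mean ± SD, n ≥ 3.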

[3] = target: T1, Retinoic acid receptor RXR-gamma (Homo sapiens); experiment: Agonist activity at Gal4-LBD fused RXRgamma (unknown origin) expressed in HEK293T cells assessed as fold activation at 10 uM after 14 to 16 hrs by dual-Glo luciferase assay relative to untreated control; summary of the method: as §2
[4] = target: T2, Retinoic acid receptor RXR-beta (Homo sapiens); experiment: Agonist activity at Gal4-LBD fused RXRbeta (unknown origin) expressed in HEK293T cells assessed as fold activation after 14 to 16 hrs by dual-Glo luciferase assay relative to untreated control; summary of the method: as §1
[5] = target: T3, Retinoic acid receptor RXR-alpha (Homo sapiens) (UniProt P19793); experiment: Agonist activity at Gal4-LBD fused RXRalpha (unknown origin) expressed in HEK293T cells assessed as fold activation after 14 to 16 hrs by dual-Glo luciferase assay relative to untreated control; summary of the method: as §1
T3 sequence (whole entry): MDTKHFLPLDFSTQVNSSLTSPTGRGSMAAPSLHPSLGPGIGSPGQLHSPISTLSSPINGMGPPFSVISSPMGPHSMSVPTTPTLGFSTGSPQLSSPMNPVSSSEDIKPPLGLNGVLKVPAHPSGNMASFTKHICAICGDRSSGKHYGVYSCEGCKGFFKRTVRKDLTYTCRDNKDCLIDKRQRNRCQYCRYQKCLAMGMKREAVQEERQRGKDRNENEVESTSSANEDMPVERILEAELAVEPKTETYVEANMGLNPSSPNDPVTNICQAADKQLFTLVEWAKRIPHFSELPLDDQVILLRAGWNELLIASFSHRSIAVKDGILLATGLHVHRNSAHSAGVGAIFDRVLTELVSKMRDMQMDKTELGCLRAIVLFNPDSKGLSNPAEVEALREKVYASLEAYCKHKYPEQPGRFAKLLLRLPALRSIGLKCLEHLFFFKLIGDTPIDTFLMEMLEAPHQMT

[6] = target: T3, Retinoic acid receptor RXR-alpha (Homo sapiens); experiment: Agonist activity at Gal4-LBD fused RXRalpha (unknown origin) expressed in HEK293T cells assessed as fold activation at 10 uM after 14 to 16 hrs by dual-Glo luciferase assay relative to untreated control; summary of the method: as §2
[7] = target: T1, Retinoic acid receptor RXR-gamma (Homo sapiens); experiment: Agonist activity at Gal4-LBD fused RXRgamma (unknown origin) expressed in HEK293T cells assessed as fold activation at 20 uM after 14 to 16 hrs by dual-Glo luciferase assay relative to untreated control; summary of the method: as §1
[8] = target: T3, Retinoic acid receptor RXR-alpha (Homo sapiens); experiment: Agonist activity at Gal4-LBD fused RXRalpha (unknown origin) expressed in HEK293T cells assessed as fold activation at 20 uM after 14 to 16 hrs by dual-Glo luciferase assay relative to untreated control; summary of the method: as §1
[9] = target: T2, Retinoic acid receptor RXR-beta (Homo sapiens); experiment: Agonist activity at Gal4-LBD fused RXRbeta (unknown origin) expressed in HEK293T cells assessed as fold activation at 20 uM after 14 to 16 hrs by dual-Glo luciferase assay relative to untreated control; summary of the method: as §1
[10] = target: T1, Retinoic acid receptor RXR-gamma (Homo sapiens); experiment: Agonist activity at Gal4-LBD fused RXRgamma (unknown origin) expressed in HEK293T cells assessed as fold activation at 30 uM after 14 to 16 hrs by dual-Glo luciferase assay relative to untreated control; summary of the method: as §2
[11] = target: T2, Retinoic acid receptor RXR-beta (Homo sapiens); experiment: Agonist activity at Gal4-LBD fused RXRbeta (unknown origin) expressed in HEK293T cells assessed as fold activation at 30 uM after 14 to 16 hrs by dual-Glo luciferase assay relative to untreated control; summary of the method: as §2
[12] = target: T3, Retinoic acid receptor RXR-alpha (Homo sapiens); experiment: Agonist activity at Gal4-LBD fused RXRalpha (unknown origin) expressed in HEK293T cells assessed as fold activation at 30 uM after 14 to 16 hrs by dual-Glo luciferase assay relative to untreated control; summary of the method: as §2

Structure (SMILES)	fold change (FC) [1]	fold change (FC) [2]	fold change (FC) [3]	fold change (FC) [4]	fold change (FC) [5]	fold change (FC) [6]	fold change (FC) [7]	fold change (FC) [8]	fold change (FC) [9]	fold change (FC) [10]	fold change (FC) [11]	fold change (FC) [12]
Cc1cc(-c2cc(C(F)(F)F)cc(C(F)(F)F)c2)ccc1CC(=O)O	14.1			62.1	24.7							
CC(C)(C)c1cc(-c2ccc(CC(=O)O)cc2)cc(C(C)(C)C)c1	26			126	41							
O=C(O)c1cccc(-c2cc(Cl)cc(Cl)c2)c1				38	26					3	34	24

Continued, values first:

fold change (FC) [1]	fold change (FC) [2]	fold change (FC) [3]	fold change (FC) [4]	fold change (FC) [5]	fold change (FC) [6]	fold change (FC) [7]	fold change (FC) [8]	fold change (FC) [9]	fold change (FC) [10]	fold change (FC) [11]	fold change (FC) [12]	Structure (SMILES)
28	92	19	93	37	32							O=C(O)Cc1ccc(-c2cc(C(F)(F)F)cc(C(F)(F)F)c2)cc1
			8.4	10		2	10	7				Cc1cc(-c2ccc(C(=O)O)cc2)cc(C(C)(C)C)c1
			42	43		2	38	39				Cc1cc(-c2cc(C(F)(F)F)cc(C(F)(F)F)c2)ccc1C(=O)O
